scFv variants of Ab-14 (heavy chain) against a SARS-CoV-2 spike peptide

Antigen: PDVDLGDISGINAS, a 14-residue peptide of the SARS-CoV-2 spike HR2 region.

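Phage display of a naive human antibody library on the peptide gave the parent. Variants in AAYL49 differ from the parent at up to three CDR positions; double and triple changes were sampled at random. Affinity was read by AlphaSeq, a pooled yeast mating assay with surface-displayed partners. Mating (16 h, 30 °C) was followed by selection of diploids and sequencing of their barcodes. Read counts were normalised to the haploid input and turned into Kd by a linear fit to BCL2-family pairs of known affinity, for each replicate. The assay was run in three technical replicates.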

Each scFv is VH, a 15-residue (Gly4Ser)3 linker, VL, as in the parent Ab-14, and differs from it in the CDRs of the heavy chain only.
VH: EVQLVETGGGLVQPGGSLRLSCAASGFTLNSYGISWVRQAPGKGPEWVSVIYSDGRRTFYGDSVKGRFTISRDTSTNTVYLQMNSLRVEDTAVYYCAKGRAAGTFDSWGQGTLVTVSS
VL: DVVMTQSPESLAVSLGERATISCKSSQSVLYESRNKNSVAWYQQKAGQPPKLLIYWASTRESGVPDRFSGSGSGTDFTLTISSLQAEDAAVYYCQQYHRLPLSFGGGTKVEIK

Variants are written as CDR1, CDR2 and CDR3 of the heavy chain (limits as in the source). Parent: GFTLNSYGIS, VIYSDGRRTFYGDSVK, GRAAGTFDS.
Numbers give log10(Kd / nM), so 0 is 1 nM and 3 is 1 µM. Smaller is tighter.
"nd" means that the variant was in the library but no mating with the target was seen in that replicate; the authors take this as a sign of poor binding, and no number exists.
Parent in this assay: reference entry 0.65, copy in this library 4.11 (one replicate of three).
As a blank, each scFv also met three strains without target: over library AAYL49, 15% of these pairings were detected, typically at 4.06 and seldom below 2.83. The control count says in how many pairings with the empty strains this scFv gave a signal, with their mean in brackets.

CDR-H1,CDR-H2,CDR-H3,"replicates, log10 nM",empty controls
GFTLNSYGIS,VIYSDGRRTFYGDSVH,GRAALTVDS,nd nd nd,0/9
GFTYNSYGIS,VIYSDGRRTFYGDSVK,GGAAGTFDS,nd 3.98 nd,3/9 (4.40)
GFTLNSYGIS,VIYSDGFRTFYGDSVK,PGAAGTFDS,nd nd nd,0/9
GFTLNSYGIS,VIYSDGRRTFYGDSVK,GRAAGVFES,nd nd nd,0/9
GFTLNSYGIS,VIYYDGRRTFYGDSVR,GRAQGTFDS,nd nd nd,1/9 (2.66)
GFTLNSYGIS,VIYSDGERTFYGDSFK,GRAGGTFDS,2.31 2.16 2.15,3/9 (4.17)
GFTLNSYGIS,VIYSDERRTFNGDSVK,HRAAGTFDS,nd nd nd,0/9
GFTLNSYMIS,VIYSDGMRTFYGDSVK,QRAAGTFDS,nd nd nd,0/9
GFTGNSYCIS,VIYSDGRRTFYGDSVK,GRAAGTFDI,nd nd nd,0/9
GFTINSYGIS,VIYSDGRRTFYGDSNK,GRGAGTFDS,nd nd nd,0/9
GFDLNPYGIS,VIYPDGRRTFYGDSVK,GRAAGTFDS,nd nd nd,1/9 (2.28)
GFTLNSYYIS,VIESYGRRTFYGDSVK,GRAAGTFDS,nd nd 2.84,5/9 (3.99)
GFTLVSYGIS,VIYSDGGRTFYGDSVK,GRAAGTFDS,3.54 2.54 nd,2/9 (3.31)
GFTLNSYGIS,VIYSDGRRTFYGDSVR,GRAAGTFFS,1.36 1.68 2.36,1/9 (1.26)
GFTLNSYGIS,VIYSDGRRTFYGDAPK,GRAAGTLDS,4.41 nd nd,2/9 (3.88)
GFTLNSYGIS,VIYSWGRRTFYGDSVK,GWAIGTFDS,nd nd nd,2/9 (3.90)
GFTLNSYGIS,VIYSWGRRTFIGDSVK,GRAAGTIDS,nd 4.88 nd,2/9 (3.01)
GFTLNSFGIS,VIYSDGRRTEYGDSVK,GRCAGTFDS,nd nd nd,0/9
GFTLNPYGIS,VIYSDGRRTFYGDSVK,GRAAGNQDS,nd nd nd,0/9
GFTLNSYGSS,VIYSDGRYTFYGDSVK,GRAQGTFDS,nd nd nd,0/9
GKTLNSYGIS,VIYSDGRRTFYFVSVK,GRAAGTFDS,nd nd nd,0/9
GFTLNSYGIS,VIYSDGRFTFIGDSVK,GRAAGTMDS,5.38 3.30 3.06,1/9 (3.55)
GFTLNSYGIS,VILSDGRRTFYGDSVK,GWAAGTFDV,nd nd nd,0/9
LFTLNSYGIS,VTYSDGRRTFYGDSVK,GRATGTFDS,nd nd nd,1/9 (3.95)
MFTLNSYGIS,VIYSDGRRTFYQDSVK,GPAAGTFDS,4.03 4.61 nd,3/9 (4.16)
GFTLRSYQIS,VIYSDGRRPFYGDSVK,GRAAGTFDS,4.43 3.31 6.27,3/9 (3.94)
GFTLNSAGIS,VIYSDGRRTFYGDGVR,GRAAGTFDS,nd nd nd,0/9
GMTLNWYLIS,VIYSDGRRTFYGDSVK,GRAAGTFDS,nd nd nd,2/9 (3.91)
GPTLNSYGIS,VGYSDGRRTFYGLSVK,GRAAGTFDS,nd nd nd,0/9
GFTLNSYGIH,VIYSDGRRTFYGDSVK,GRAQGTFDH,nd 4.75 nd,0/9
GFTLNSYGIS,VIYSDQCRTFYGDSVK,GRAAGTFDS,nd nd nd,0/9
GFTLNSYGIS,VIYSDGRRTFYTDSVH,SRAAGTFDS,nd 4.94 nd,0/9

The 2 strongest on average among those seen in every replicate, once more:

CDR-H1,CDR-H2,CDR-H3,"replicates, log10 nM",empty controls
GFTLNSYGIS,VIYSDGRRTFYGDSVR,GRAAGTFFS,1.36 1.68 2.36,1/9 (1.26)
GFTLNSYGIS,VIYSDGERTFYGDSFK,GRAGGTFDS,2.31 2.16 2.15,3/9 (4.17)

Reference: Engelhart et al. 2022, doi:10.1038/s41597-022-01779-4. File: FLAb, binding data.